One experiment has as its system SKOV-3 ovarian carcinoma. The experiment is described as follows: In vivo antitumor effect against orthotopically (i.p.) implanted SKOV-3 ovarian cancer, survival. Also noted: species or system mice. The settings on record: for Antitumor efficacy: SKOV-3 i.p., 15 mg/kg i.p. q4dx4; for Increase in lifespan (%) vs vehicle: SKOV-3 ovarian ca. orthotopic, 15 mg/kg i.p., q4dx4. The method, then:
Nude Nu/Nu female mice (from Charles River, Italy) were given a single intraperitoneally injection of 10×10^6 SKOV-3 ovarian carcinoma cells suspended in 200 μL cell culture medium RPMI supplemented with 10% FBS.

For another experiment, the system named is LS174-T colon carcinoma. The experiment is described as follows: In vivo efficacy against intraperitoneal LS174-T colon cancer, survival. The settings on record: 15 mg/kg i.p., q4dx4; for Increase in lifespan (%) vs vehicle: LS174-T colon ca. orthotopic (i.p.); for Median survival time (MST): LS174-T i.p.
For experiment [1], the system named is PDX pancreas cancer PA5363. Kind of experiment: In vivo antitumor activity of ST8176AA1 against PDX pancreas cancer PA5363. The note with it: for Tumor inhibition (%) vs vehicle: PDX pancreas ca. PA5363 s.c., 15 mg/kg i.p., q4dx5. Further details: species or system mice. On the procedure: NOD-SCID mice (from Jackson Laboratories) were given a single subcutaneous injection of cells of the patient PA5363 P2 at 77000 cells/100 μL resuspended in an equal volume of Cultrex 10× spheroid phormation ECM.
Tumor measurements and data as in Example 20.

Experiment [2] has as its system tumour cells (A549, H1975, SKBR3, LS174T, SKOV3, CAPAN1, N87). The experiment is described as follows: Internalization by tumour cells (HCS fluorescence imaging, Operetta). It is filed as cell-based. Also noted: key: ++ is a score representing a high extent of binding or internalization. The note with it: 5 μg/mL, 3 hours at 37° C. The method, then:
Ability of ADCs to internalize within tumour cells, following their binding to cognate receptors, was assessed by means of HCS fluorescence imaging, through Operetta system (Perkin Elmer). Several tumour cell types, including lung (A549, H1975), breast (SKBR3), colon (LS174T), ovarian (SKOV3), pancreas (CAPAN1) and stomach (N87) carcinoma cell lines, were tested. Cells were seeded in 96-well microtiter plates (0.5-1×10^4 well) and then incubated with 5 μg/mL antibodies in culture medium, for 3 hours at 37° C. Following two washings, cells were then fixed with 4% formaldehyde in PBS, permeabilized with PBS 0.2% Tween-20 (PBS-T) and blocked with 2% BSA in PBS-T, and ultimately stained with FITC-conjugated mouse anti-human IgG (BD Pharmingen). Fluorescence was acquired and analyzed by means of the High Content Screening (HCS) system Operetta (Perkin Elmer). Cells were counterstained with Draq5 dye (Cell Signaling).

For the next experiment, the system named is LS174T colon carcinoma. The experiment is described as follows: In vivo antitumor effect against s.c. LS-174T colon cancer. Further details: species or system mice. The settings on record: for Tumor inhibition (%) vs vehicle: LS174-T colon ca. s.c., 15 mg/kg i.p., q4dx4. An excerpt:
Tumors were allowed to develop in Nu/Nu mice for 6 days after s.c. injection of 5×10^6 LS174T colon carcinoma cells. Lesion development and response to antibody treatment was monitored using a digital caliper.

In experiment [3] the test system is ErbB1 and ErbB2 receptors. Kind of experiment: ADC binding to ErbB1 and ErbB2 receptors on tumor cells (FACS analysis). Further details: key: ++ is a score representing a high extent of binding or internalization. The settings on record: 10 μg/mL, 1 hour, 4° C.; tumor cell lines with different EGFR and ErbB2 expression. On the procedure:
Binding of the ADCs to ErbB1- and ErbB2-expressing tumor cells was confirmed by FACS analysis. Various tumor cell lines with different levels of EGFR and ErbB2 expression, including lung (A549, H1975), breast (SKBR3), colon (LS174T), ovarian (SKOV3), pancreas (CAPAN1 and MIAPACA-2) and stomach (N87) carcinoma cell lines, were used in the experiments. Cell pellets were incubated 1 hour, at 4° C., with 10 μg/mL antibodies or ADCs in PBS and then, after two washings in PBS, stained 1 hour, at 4° C., with mouse anti-human FITC-conjugated IgGs (BD Pharmingen). After two further washings, propidium iodide (PI) was added and cell-associated fluorescence analysis was performed by means of a FACScalibur (Becton Dickinson).

For experiment [4], the system named is CAPAN-1 orthotopic pancreatic tumor. The experiment is described as follows: In vivo antitumor effect against orthotopic CAPAN-1 pancreas cancer. The note with it: 40 mg/kg i.p., q4dx4. Further details: species or system mice. An excerpt: Capan-1 (1×10^6) cells were directly injected into pancreas of experimental groups.
Experiment [5] has as its system PDX pancreas carcinoma PA5363. Kind of experiment: In vivo antitumor effect of ST8154AA1 against PDX pancreas cancer PA5363. Also noted: species or system mice. The note with it: PDX pancreas ca. PA5363 s.c.; 40 mg/kg i.p., q4dx5. The method, then: NOD-SCID mice (from Jackson Laboratories) were given a single subcutaneous injection of cells of the patient PA5363 P2 at 51000 cells/100 μL re-suspended in an equal volume of Cultrex 10× spheroid phormation ECM.
Tumor growth measurements and data as in Example 20.

In experiment [6] the test system is Calu-3 non-small cell lung carcinoma cells. The experiment is described as follows: Inhibition of tumor cell proliferation (CellTiter-Glo), Calu-3. The settings on record: Calu-3, 6 days of treatment; read-out: IC50, antiproliferative activity. It is filed as cell-based.
Experiment [7] concerns NCI-H1975 non-small cell lung carcinoma cells. The experiment is described as follows: Inhibition of tumor cell proliferation (CellTiter-Glo), NCI-H1975. The class given is cell-based. The settings on record: NCI-H1975, 6 days of treatment; read-out: IC50, antiproliferative activity.
Experiment [8] concerns A549-luc-C8 (A549luc) metastatic lung cancer. The experiment is described as follows: In vivo effect by aerosol against metastatic A549 non-small cell lung cancer (bioluminescence). Also noted: species or system mice. The settings on record: A549 NSCLC i.v.; Aerosol q7dx4, 3.5 mL of 100 μg/mL solution. On the procedure: Metastatic lung cancer was established by injecting 5×10^6 A549-luc-C8 (A549luc) cells into the tail vein of immunodeficient SCID/beige mice. […] Treatments were repeated according to the schedule q7dx4. Tumor bioluminescence imaging (BLI) was recorded at different time points by Xenogen IVIS Imaging System 200 (Perkin Elmer), 15 min after i.p. injection of luciferin (150 μg/mouse).

Experiment [9] relates to A549 non-small cell lung carcinoma. Kind of experiment: In vivo antitumor effect against s.c. A549 non-small cell lung cancer (Example 22). The settings on record: A549 NSCLC s.c.; 50 mg/kg i.p., q4dx4. Further details: species or system mice. The method, then:
Nude mice were given a subcutaneous injection of 5×10^6 A549 non-small cell lung carcinoma cells suspended in 100 μL cell culture medium RPMI supplemented with 10% FBS. […] Tumor measurements and data as in Example 21.

For the substance Trastuzumab [reference compound], in the experiment on SKOV-3 ovarian carcinoma, the “Antitumor efficacy” value is recorded as “efficacious” and the “Increase in lifespan (%) vs vehicle” value is 72%. For the same substance, in the experiment with LS174-T colon carcinoma, the “Increase in lifespan (%) vs vehicle” value amounted to 0% and the “Median survival time (MST)” value came out at 37 days. The “Tumor inhibition (%) vs vehicle” value in experiment [1] stood at 0%. Besides, the “Internalization (HCS Imaging)” value in experiment [2] is “++”. For the same substance, in the experiment with LS174T colon carcinoma, the “Tumor inhibition (%) vs vehicle” value is on record as 0%. The “Binding (FACS analysis)” value in [3] was “++”.

For ST8177AA1, in experiment [2], the “Internalization (HCS Imaging)” value is “++”. For the same substance, in experiment [3], the “Binding (FACS analysis)” value is “++”.

As to ST8176AA1, the “Antitumor efficacy” value in the experiment on SKOV-3 ovarian carcinoma is “efficacious”; with LS174T colon carcinoma (LS174T s.c., 15 mg/kg i.p. q4dx4), “significantly inhibit the tumor growth of colon cancer”. Further, the “Increase in lifespan (%) vs vehicle” value in the experiment on SKOV-3 ovarian carcinoma was determined as 95%; in the experiment with LS174-T colon carcinoma, 35%. For the same substance, in the experiment with LS174-T colon carcinoma, the “Median survival time (MST)” value is on record as 50 days. In experiment [1] (PDX pancreas PA5363, 15 mg/kg ip q4dx5), the “Antitumor efficacy compared with Trastuzumab” value was “significantly more efficacious than trastuzumab”. Moreover, the “Tumor inhibition (%) vs vehicle” value in [1] amounted to 35%; with LS174T colon carcinoma, 25%. Also, the “Internalization (HCS Imaging)” value in [2] is recorded as “++”. For the same substance, the “Binding (FACS analysis)” value in experiment [3] is given as “++”.

Turning to Cetuximab [reference compound], the “Tumor or Metastases Inhibition (%) vs vehicle” value was found to be 49% in experiment [4] (CAPAN-1 orthotopic in pancreas, tumor weight 90 days after tumor injection); 25% in [5]; 50% in [8]; 34% in experiment [9]. For the same substance, the “CR (mice with complete responses)” value in experiment [4] (CAPAN-1 orthotopic, 40 mg/kg) is listed as 2/10, P < 0.05. Further, the IC50 in experiment [6] and in experiment [7] was over 500 nM in each case. In addition, the “Internalization (HCS Imaging)” value in experiment [2] is recorded as “++”. The “Binding (FACS analysis)” value in experiment [3] is on record as “++”.

On to ST8179AA1, for which the “Internalization (HCS Imaging)” value in experiment [2] is on record as “++”. In experiment [3], the “Binding (FACS analysis)” value is listed as “++”.

For the substance ST8218AA1, in experiment [2], the “Internalization (HCS Imaging)” value was “++”. Further, in experiment [3], the “Binding (FACS analysis)” value was “++”.

For ST8205AA1, in [2], the “Internalization (HCS Imaging)” value is listed as “++”. The “Binding (FACS analysis)” value in experiment [3] is on record as “++”.

For the substance ST8219AA1, the “Internalization (HCS Imaging)” value in experiment [2] is listed as “++”. Moreover, the “Binding (FACS analysis)” value in [3] is reported as “++”.

For ST8178AA1, the “Internalization (HCS Imaging)” value in experiment [2] is listed as “++”. For the same substance, in [3], the “Binding (FACS analysis)” value is given as “++”.

The values above are taken from patent publication US20210128740A1, “HDAC INHIBITORS-BASED ANTIBODY DRUG CONJUGATES (ADCs) AND USE IN THERAPY” (ALFASIGMA S.P.A., priority 2017, published 2021).
